From PubChem BioAssay AID371 (SRMLSC, 2006)
The list shows a part of the results, in another mix than the full data. Activity calls are given as the source filed them.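 The calls were made as follows: active = mean growth inhibition over the two runs of 50% or more; inactive = mean growth inhibition under 50%.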

Assay: A549 NSCLC cell proliferation inhibitors – ATP luminescence, human non-small cell lung line, primary screen (AID 371);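 also: compound exposure lasted 72 h before the ATP read; 0% = untreated cell signal and 100% = no luminescence left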
Conditions: at 10 µM, active compounds read high
In the case of `Cc1cccc(OCC(=O)OC2CN3CCC2CC3)c1` (configuration not stated), the growth inhibition is reported as inactive: 4.48%.
In the case of `Cc1ccc(OCC(=O)OC2CN3CCC2CC3)cc1` (configuration not stated), the growth inhibition is reported as inactive: 3.47%.
